Results: patent US8299074B2, “P38 MAP kinase inhibitors” (RespiVert Ltd., priority 2008, dated 2012)

Sequences of proteins named here, by UniProt entry; tags and fusion partners are left off.
UniProt Q16539, whole entry: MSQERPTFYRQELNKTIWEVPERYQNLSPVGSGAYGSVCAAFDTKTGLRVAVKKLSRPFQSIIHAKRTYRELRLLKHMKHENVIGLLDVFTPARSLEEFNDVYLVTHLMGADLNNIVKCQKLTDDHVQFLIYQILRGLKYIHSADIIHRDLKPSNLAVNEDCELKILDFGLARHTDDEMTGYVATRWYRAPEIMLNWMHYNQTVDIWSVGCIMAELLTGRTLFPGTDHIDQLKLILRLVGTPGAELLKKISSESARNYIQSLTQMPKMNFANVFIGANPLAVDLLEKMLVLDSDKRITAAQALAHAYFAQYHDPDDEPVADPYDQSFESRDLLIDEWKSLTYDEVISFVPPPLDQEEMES

Molecular target: T1, p38 MAPK alpha (MAPK14) (Homo sapiens, UniProt Q16539)
T1 construct: purchased Invitrogen
Experiment: Enzyme inhibition assay, p38 MAPK alpha (FRET, Z-LYTE, via MAPKAP-K2)
Format: biochemical
Conditions: Table 2; read-out: Enzyme p38α IC50

With `Cc1ccc(-n2nc(C(C)(C)C)cc2NC(=O)Nc2ccc(Oc3ccnc(NC(=O)C4CCOCC4)c3)c3ccccc23)cc1` [Example 2, N-(4-(4-(3-(3-tert-Butyl-1-p-tolyl-1H-pyrazol-5-yl)ureido)naphthalen-1-yloxy)pyridin-2-yl)tetrahydro-2H-pyran-4-carboxamide] the IC50 was under 10 nM.
With `CSCC(=O)Nc1cc(Oc2ccc(NC(=O)Nc3cc(C(C)(C)C)nn3-c3ccc(C)cc3)c3ccccc23)ccn1` [Example 3, N-(4-(4-(3-(3-tert-Butyl-1-p-tolyl-1H-pyrazol-5-yl)ureido)naphthalen-1-yloxy)pyridin-2-yl)-2-(methylthio)acetamide] the IC50 was under 10 nM.
With `COCCC(=O)Nc1cc(Oc2ccc(NC(=O)Nc3cc(C(C)(C)C)nn3-c3ccc(C)cc3)c3ccccc23)ccn1` [Example 4, N-(4-(4-(3-(3-tert-Butyl-1-p-tolyl-1H-pyrazol-5-yl)ureido)naphthalen-1-yloxy)pyridin-2-yl)-3-methoxypropanamide] the IC50 was under 10 nM.
